# Data published in PubChem BioAssay AID1452 (National Center for Advancing Translational Sciences (NCATS), 2008).
# The chains behind the UniProt entries cited, without tags or fusion partners. Where a name states a change or a piece, a line headed by the entry shows the natural chain unless it says otherwise.
# UniProt P18054: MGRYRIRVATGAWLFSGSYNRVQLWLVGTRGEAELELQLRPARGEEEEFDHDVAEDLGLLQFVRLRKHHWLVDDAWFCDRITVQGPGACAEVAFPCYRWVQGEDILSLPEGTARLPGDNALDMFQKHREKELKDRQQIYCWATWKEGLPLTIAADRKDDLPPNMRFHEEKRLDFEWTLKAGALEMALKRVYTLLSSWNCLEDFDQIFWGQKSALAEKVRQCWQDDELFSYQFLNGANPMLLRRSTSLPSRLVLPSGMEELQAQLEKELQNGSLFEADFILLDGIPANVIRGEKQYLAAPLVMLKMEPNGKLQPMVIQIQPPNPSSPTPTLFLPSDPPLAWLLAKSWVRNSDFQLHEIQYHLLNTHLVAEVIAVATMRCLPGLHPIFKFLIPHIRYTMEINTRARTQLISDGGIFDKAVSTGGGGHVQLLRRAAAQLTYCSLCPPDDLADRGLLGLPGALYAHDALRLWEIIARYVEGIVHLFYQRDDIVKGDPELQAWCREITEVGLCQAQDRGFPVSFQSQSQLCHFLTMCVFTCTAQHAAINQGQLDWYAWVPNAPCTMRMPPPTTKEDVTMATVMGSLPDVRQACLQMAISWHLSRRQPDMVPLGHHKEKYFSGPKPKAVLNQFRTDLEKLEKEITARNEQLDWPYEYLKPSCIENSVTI
# Values joined by “and” are separate entries in the source; they are usually repeats but may differ in a detail not shown here. Equal values may be shown once. The list shows a part of the results, in another mix than the full data. Active and inactive are the calls of the source. The call rests on the fitted dose curve; in most records, active means well fitted inhibition curve with a large enough effect; inconclusive means small, poorly fitted or top-dose-only effect; inactive means flat fitted curve, though single readings scatter.
# Molecular target: Polyunsaturated fatty acid lipoxygenase ALOX12 (Homo sapiens) (UniProt P18054)
# Assay: qHTS Assay for Inhibitors of 12-hLO (12-human lipoxygenase); further: nearly all actives have a fitted effect of over 55% in size
# Conditions: purified 12-hLO, xylenol orange hydroperoxide absorbance
# Text: Assay Provider: Holman, T.R., University of California, Santa Cruz Screening Center PI: Austin, C.P. Screening Center: NIH Chemical Genomics Center [NCGC] Human lipoxygenase 12hLO is a member of the closely related lipoxygenase family of enzymes which catalyze the site-specific oxidation of arachidonic acid to various hormone precursor molecules and as such is a candidate for drug development in a variety of disease areas, such as cancer and inflammation. Inhibition of 12hLO activity was screened by utilizing arachidonic acid as a substrate. The extent of hydroperoxide product formation was measured by a secondary chromogenic reaction in which xylenol orange (XO, Sigma-Aldrich, cat. number 39,818-7) reacts with the ferric ions produced from the reaction between the hydroperoxide and ferrous ions. The Fe(III)-XO complex is characterized with red-shifted absorbance at 560 nm. A purified preparation of human 12hLO was supplied by Professor Ted Holman, University of California, Santa Cruz.
# Assay Protocol: Buffer: 25 mM Hepes pH 7.0, 0.01% Triton X-100. Reagents/Controls: Buffer in columns 3 and 4 as negative control (no enzyme). Substrate solution: 40 uM arachidonic acid (Sigma-Aldrich, St. Louis, MO) final concentration dispensed throughout the plate. Enzyme: 150 nM 12hLO final concentration in columns 1, 2, 5-48. Column 1 is neutral (100% activity). Column 2 contained pin-transferred titration of NDGA (nordihidroguaiaretic acid, Sigma-Aldrich, N 5023, top concentration 20 mM in DMSO, then 1:3 dilution in duplicate). (Dilution factor: 23 nL into 4 uL.) Chromogenic detection reagent (divalent iron/xylenol orange, Fe-XO): 200 uM xylenol orange plus 300 uM ferrous ammonium sulfate prepared freshly in 50 mM sulfuric acid. Assay Steps: Three uL of enzyme were dispensed to 1536-well Greiner black clear bottom plates. Compounds and controls (23 nL) were transferred via Kalypsys PinTool. The plates were incubated for 15 min at room temperature, and then 1 uL of substrate solution was added to start the reaction. After room temperature incubation for 30 minutes, 4 uL of Fe-XO solution was added to each well and the plates were incubated for 30 min. The absorbance at 405 and 573 nm were measured using ViewLux (Perkin-Elmer) High-throughput CCD imager and absorbance protocol settings. The 573-to-405 absorbance ratio was used to compute reaction progress.
# [1] = at 57.1 µM (top of the series) unless noted
# On the % scale 0 is the no-effect control and ±100 the full control effect.
structure (smiles),measurement,setting,value
Cc1cc(SC(NC(=O)c2ccccc2)C(Cl)(Cl)Cl)nc(C(C)C)n1 (stereo not given),"activity change, negative = inhibition",[1],inactive: -7.95%
CN(N=O)C(=N)N[N+](=O)[O-],"activity change, negative = inhibition",[1],inactive: -0.962%
O=C(O)[C@@H](O)c1ccc([As](=O)(O)O)cc1,"activity change, negative = inhibition",[1],inactive: -8.63% [at 11.4 µM]
O=C(COc1ccccc1)OC1CN2CCC1CC2 (stereo not given),"activity change, negative = inhibition",[1],inactive: 4.52%
COP1(=S)c2c(C)nn(CCC#N)c2N=C(c2ccc(F)cc2)N1C (stereo not given),"activity change, negative = inhibition",[1],inactive: 5.96%
CCC(C)N(CC(C)C)C(=S)SC(NC(C)=O)C(Cl)(Cl)Cl (stereo not given),"activity change, negative = inhibition",[1],inactive: -5.58%
Cc1c2c(nc3ccccc13)SC(C(Cl)Cl)C2 (stereo not given),"activity change, negative = inhibition",[1],inactive: -4.89%
O=C(OC1CN2CCC1CC2)C12CC3CC(CC(C3)C1)C2 (stereo not given),"activity change, negative = inhibition",[1],inactive: 5.28%
Cc1ccc2nc3c(c(C)c2c1)CC(C(Cl)Cl)S3 (stereo not given),"activity change, negative = inhibition",[1],inactive: -11.1%
CCN(CC)C(=S)SC(NC=O)C(Cl)(Cl)Cl (stereo not given),"activity change, negative = inhibition",[1],inactive: 1.79%
O=[N+]([O-])c1cc([N+](=O)[O-])c(-c2ccn[nH]2)s1,"activity change, negative = inhibition",[1],inactive: -8.22%
ClCCSc1nnc(-c2cccnc2)o1,"activity change, negative = inhibition",[1],inactive: -5.7%
O=[As]c1ccc(S(=O)(=O)NCCO)cc1 (stereo not given),"activity change, negative = inhibition",[1],inactive: 1.05% [at 11.4 µM]
[N-]=[N+]=NCC(N)=O,"activity change, negative = inhibition",[1],inactive: 8.95% [at 11.4 µM]
O=[As](O)(O)c1ccc([As](=O)(O)O)cc1,"activity change, negative = inhibition",[1],inactive: 5.79% [at 11.4 µM]
CCOP1(=S)c2c(C)nn(CCC#N)c2N=C(c2ccccc2F)N1C (stereo not given),"activity change, negative = inhibition",[1],inactive: 2.01%
CCOP1(=S)c2c(C)nn(CCC#N)c2N=C(c2ccc(F)cc2)N1C (stereo not given),"activity change, negative = inhibition",[1],inactive: -2.4%
O=[N+]([O-])c1ccc2c(c1)nnn2O,"activity change, negative = inhibition",[1],inactive: 2.24%
Cc1cccc(OCC(=O)OC2CN3CCC2CC3)c1 (stereo not given),"activity change, negative = inhibition",[1],inactive: -0.891%
COc1cc(C2NCCC3(OCCO3)C2(C)C)cc(OC)c1OC (stereo not given),"activity change, negative = inhibition",[1],inactive: -3.03%
CCOP(=O)(Nc1cccc2ccccc12)OCC,"activity change, negative = inhibition",[1],inactive: -0.728%
CN(C(=O)Cc1ccc(Cl)c(Cl)c1)[C@@H]1CC[C@@]2(CCCO2)C[C@H]1N1CCCC1,"activity change, negative = inhibition",[1],inactive: 6.69%
O=C(CC(=O)c1ccccc1)O[C@H]1CN2CCC1CC2,"activity change, negative = inhibition",[1],inactive: 6.5% [at 11.4 µM]
Cc1ccc(NCCc2c([N+](=O)[O-])cc([N+](=O)[O-])cc2[N+](=O)[O-])cc1,"activity change, negative = inhibition",[1],inactive: -15.2%
NS(=O)(=O)Cc1ccc([As](=O)(O)O)cc1,"activity change, negative = inhibition",[1],inactive: -1.3% [at 11.4 µM]
Clc1n[nH]nc1-c1nn[nH][15n]1,"activity change, negative = inhibition",[1],inactive: -7.49%
O=P1(Nc2ccccn2)COc2ccccc2OC1,"activity change, negative = inhibition",[1],inactive: -2.43%
CN(CCCl)Cc1cc(Cl)c(NC2=NCCN2)c(Cl)c1,"activity change, negative = inhibition",[1],inactive: 1.49%
CN(C(=O)Cc1ccc(Cl)c(Cl)c1)[C@@H]1CCCC[C@H]1N1CCCC1,"activity change, negative = inhibition",[1],inactive: -1.59% [middle of 4 runs]
Cc1nn(-c2ccccc2)c2c1P(=O)(N1CCOCC1)N(C)C(c1ccccc1)=N2 (stereo not given),"activity change, negative = inhibition",[1],inactive: -3.67%
O=P1(Nc2ccc(Br)cn2)COc2ccccc2OC1,"activity change, negative = inhibition",[1],inactive: 0.672%
Cc1ccc(OCC(=O)OC2CN3CCC2CC3)cc1 (stereo not given),"activity change, negative = inhibition",[1],inactive: 1.35%
O=P1(Nc2ncccn2)COc2ccccc2OC1,"activity change, negative = inhibition",[1],inactive: 1.67%
[N-]=[N+]=Nc1ccc([As](=O)(O)O)cc1,"activity change, negative = inhibition",[1],inactive: -1.07% [at 11.4 µM]
Cc1cc([N+](=O)[O-])cc([N+](=O)[O-])c1O,"activity change, negative = inhibition",[1],inactive: -4.54%
O=C(OC1CN2CCC1CC2)c1cccc(Cl)c1 (stereo not given),"activity change, negative = inhibition",[1],inactive: 1.11%
C(Cc1nn[nH]n1)Cc1nn[nH]n1,"activity change, negative = inhibition",[1],inactive: -1.15%
CC(=O)NC(SC(=S)N(C)C)C(Cl)(Cl)Cl (stereo not given),"activity change, negative = inhibition",[1],inactive: -3.07%
c1nnnn1CCn1cnnn1,"activity change, negative = inhibition",[1],inactive: -0.0464%
O=P(Nc1nccs1)(c1ccccc1)c1ccccc1,"activity change, negative = inhibition",[1],inactive: 2.29%
CC(C)C(=O)NC(Sc1ccccc1)C(Cl)(Cl)Cl (stereo not given),"activity change, negative = inhibition",[1],inactive: -0.898%
C[C@@H](O)COc1ccc([As](=O)(O)O)cc1N,"activity change, negative = inhibition",[1],inactive: 5.68% [at 11.4 µM]
CN1CCC[C@H](OC(=O)C(c2ccccc2)c2ccccc2)C1,"activity change, negative = inhibition",[1],inactive: 7.71% [at 11.4 µM]
O=P1(Nc2nc3ccc(Cl)cc3s2)COc2ccccc2O1 (stereo not given),"activity change, negative = inhibition",[1],inactive: -11.8%
CCOC(=O)NC(Sc1ccccc1)C(Cl)(Cl)Cl (stereo not given),"activity change, negative = inhibition",[1],inactive: -2%
CCC(=O)N1C2C3N(C(=O)CC)C1C1N(C(=O)CC)C(C(N1C(=O)CC)N3C(=O)CC)N2C(=O)CC,"activity change, negative = inhibition",[1],inactive: 8.46%
COC(=O)c1cc2c(s1)N=C(c1ccccc1)N(C)P2(=O)N1CCOCC1 (stereo not given),"activity change, negative = inhibition",[1],inactive: -1.63%
CC(=O)NC(SC(=S)N(CC(C)C)CC(C)C)C(Cl)(Cl)Cl (stereo not given),"activity change, negative = inhibition",[1],inactive: 0.103%
CCOP(=O)(Nc1ccccc1)OCC,"activity change, negative = inhibition",[1],inactive: 11.1%
Cc1cc(SC(NC(=O)c2ccc(F)cc2)C(Cl)(Cl)Cl)ncn1 (stereo not given),"activity change, negative = inhibition",[1],inactive: -4.36%
CN(C(=O)Cc1ccc(Cl)c(Cl)c1)[C@H]1CCCC[C@@H]1N1CCCC1,"activity change, negative = inhibition",at 0.00818 µM (top of the series),inactive: 1.88%
same,"activity change, negative = inhibition",at 57.1 µM (top of the series),inactive: 1.72% and inactive: -3.37% and inactive: -4.87%
C(Cc1nn[nH]n1)c1nn[nH]n1,"activity change, negative = inhibition",[1],inactive: 0.448% [at 11.4 µM]
CCN(N=Nc1nonc1N)c1nonc1N,"activity change, negative = inhibition",[1],inactive: 0.225%
[N-]=[N+]=NCC(O)CN=[N+]=[N-] (stereo not given),"activity change, negative = inhibition",[1],inactive: 3.25% [at 11.4 µM]
CN1CCCC(OC(=O)C(c2ccccc2)c2ccccc2)C1 (stereo not given),"activity change, negative = inhibition",[1],inactive: 19.7%
O=[N+]([O-])c1ccc(C[As](=O)(O)O)cc1,"activity change, negative = inhibition",[1],inactive: -1.54% [at 11.4 µM]
NCC[C@@H](N)CSP(=O)(O)O,"activity change, negative = inhibition",[1],inactive: -3.05% [at 11.4 µM]
Oc1ccccc1CNc1ccccn1,"activity change, negative = inhibition",[1],inactive: 12.9%
Cc1c2non([O-])c-2c(C)[n+](=O)[n+]1[O-],"activity change, negative = inhibition",[1],inactive: -12.1%
O=C(NC(Sc1ccncn1)C(Cl)(Cl)Cl)c1ccccc1 (stereo not given),"activity change, negative = inhibition",[1],inactive: -0.461%
CC(C)CC(=O)NC(Sc1ccc(Cl)cc1)C(Cl)(Cl)Cl (stereo not given),"activity change, negative = inhibition",[1],inactive: -3.27%
CCc1nc2c(n1)c1c(non1O)c1c2no[n+]1[O-],"activity change, negative = inhibition",[1],inactive: -3.84%
CC(=O)N1C2C3N(C(C)=O)C1C1N(C(C)=O)C(C(N1C(C)=O)N3C(C)=O)N2C(C)=O,"activity change, negative = inhibition",[1],inactive: -1.6%
O=[N+]([O-])c1cccc2n[nH]nc12,"activity change, negative = inhibition",[1],inactive: -4.54%
CC1CCN(C(=O)Oc2c(Cl)cc(Cl)c3cccnc23)CC1,"activity change, negative = inhibition",[1],inactive: -0.137%
CC(=O)C1=CCCC2CCC1N2 (stereo not given),"activity change, negative = inhibition",[1],inactive: -0.174% [at 0.00818 µM]
O=C(CO)Nc1ccc([As](=O)(O)O)cc1,"activity change, negative = inhibition",[1],inactive: -2.7% [at 11.4 µM]
CN(C)C(=O)OCCc1n(C)cc[n+]1C,"activity change, negative = inhibition",[1],inactive: 3.28%
CN(C(=O)Cc1ccccc1)[C@@H]1CC[C@@]2(CCCO2)C[C@H]1N1CCCC1,"activity change, negative = inhibition",[1],inactive: 3.46%
